The subject of one series is S. aureus RN4220. The experiment in a line: Bacterial growth inhibition assay, S. aureus RN4220. The class given is cell-based, Staphylococcus aureus. The protocol: (§1) Compounds were dissolved in DMSO to a final concentration of 20 mM. To determine the compound’s activity against different bacteria, a bacterial culture (E. coli ATCC10536, S. aureus RN4220) was set up to an optical density at 600 nm (OD600) of 0.05 from an overnight culture in Mueller-Hinton broth (Carl Roth). The compound was added in different concentrations ranging from […] to 1 μM. DMSO concentration was constantly adjusted to be 1% in the final culture. Cultures of 200 μL were incubated for 24 h at 37 °C in flat-bottom 96-well polystyrene culture plates (Greiner) using a BioTek Synergy H1 plate reader. Plates were incubated under constant shaking, and absorbance at 600 nm was measured every 20 min. The experiment was performed in three biological replicates with three technical replicates each.

The subject of the next series is E. coli ATCC10536. As to the kind of experiment: Bacterial growth inhibition assay, E. coli ATCC10536. It counts as cell-based, Escherichia coli. To be noted: up to 100 μM, growth curves. The protocol: as §1
Series [1] is described as follows: Cell Titer Glo cell viability assay. To be noted: human. It counts as cell-based. The protocol: Cell viability assays were conducted with HEK293 cells (ATCC) to investigate the compounds’ mammalian cytotoxicity. Cells were cultured according to standard protocols (DMEM, 10% FBS, 1× Penicillin/Streptomycin, 37 °C, 5% CO2). Cell viability was assessed using the Promega CellTiterGlo assay kit. Briefly, 1000 cells were seeded in white half a rea 96-well plates (Greiner) and incubated for 48 h with inhibitors from DMSO stocks (final: 0.1% DMSO) under standard cultivation conditions. Then, the cell titer reagent was added to each well according to the manufacturer’s protocols, and luminescence was measured using a Tecan Spark 10 M plate reader.

Broadly, the MIC is the lowest concentration that inhibits growth of the organism. A word on the CC50: it is the concentration at which the toxic effect on the cells reaches its halfway point. A high value points to lower toxicity to the cells.

Entries after “also recorded” stand apart in the source; their conditions may differ.

In the case of `NC(N)=NCCn1cc(-c2c[nH]c3nc[nH]c(=O)c23)nn1` [Compound 8h], in the series on S. aureus RN4220 (1, 10 and 100 μM, 24 h growth curves), the “effect on S. aureus RN4220 growth” value is “no pronounced effect on growth; also recorded: did not influence bacterial growth”. Also, the MIC in the series with S. aureus RN4220 (Staphylococcus aureus, RN4220, 24 h (1440 min)) is > 100 µM. For the same compound, the “effect on E. coli growth” value with E. coli ATCC10536 is reported as “no pronounced effect on growth”. For the same compound, the CC50 at 48 h in series [1] is > 100 µM.

These data come from publication PMC12751012, “Nanoscale Direct-to-Biology Optimization and Structural Insights into Selective S. aureus TrmD Inhibitors” (Journal of Medicinal Chemistry, 2025).
